Target: ERα (Homo sapiens, UniProt P03372)
Test: ER western assay with proteasomal inhibitor MG-132 in MCF7:WS8 cells
Type: cell-based
Conditions: MCF7:WS8, 10 nM, MG-132 1 μM, western blot

The chains behind the UniProt entries cited, without tags or fusion partners.
UniProt P03372, whole entry: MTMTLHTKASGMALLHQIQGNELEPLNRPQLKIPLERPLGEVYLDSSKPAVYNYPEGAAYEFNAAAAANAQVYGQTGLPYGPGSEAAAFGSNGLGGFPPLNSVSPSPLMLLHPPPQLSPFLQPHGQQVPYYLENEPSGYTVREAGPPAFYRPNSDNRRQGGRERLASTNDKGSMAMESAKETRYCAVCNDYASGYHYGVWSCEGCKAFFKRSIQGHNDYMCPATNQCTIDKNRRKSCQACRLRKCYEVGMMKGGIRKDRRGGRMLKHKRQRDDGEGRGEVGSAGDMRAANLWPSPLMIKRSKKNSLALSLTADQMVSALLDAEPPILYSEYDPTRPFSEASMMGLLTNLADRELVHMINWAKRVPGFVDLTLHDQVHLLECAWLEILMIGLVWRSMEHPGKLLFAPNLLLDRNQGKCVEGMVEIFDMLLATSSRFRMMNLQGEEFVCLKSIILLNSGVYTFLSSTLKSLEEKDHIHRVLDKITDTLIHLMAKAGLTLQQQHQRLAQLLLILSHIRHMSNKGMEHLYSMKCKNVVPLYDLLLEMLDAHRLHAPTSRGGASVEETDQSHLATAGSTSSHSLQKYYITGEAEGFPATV

C[C@]12CC[C@@H]3c4ccc(O)cc4C[C@@H](CCCCCCCCC[S+]([O-])CCCC(F)(F)C(F)(F)F)[C@H]3[C@@H]1CC[C@@H]2O (stereo partly shown) [compound 2, fulvestrant, reference compound]
proteasome dependence of ERα degradation, in words: coadministration of a proteasome inhibitor blocked the actions

Source: paper PMC7261373 (Journal of medicinal chemistry, 2019)
